From paper PMC9144537, “Pharmacokinetics, Prostate Distribution and Metabolic Characteristics of Four Representative Flavones after Oral Administration of the Aerial Part of Glycyrrhiza uralensis in Rats” (Molecules, 2022)

Assay: Qualitative detection of prototype flavones and metabolites in rat plasma, prostate, urine and feces by UPLC-Q-Exactive Orbitrap-MS after oral aerial part of G. uralensis
Conditions: rats, single oral 1 g/kg extract, + not defined (detected)

Substance: methyl-daidzein-glucoside [1-M2]
- Distribution of four representative flavonoids and metabolites: Plasma: detected
